Test results: patent US20090269781A1

Biological target: calmodulin-binding peptide (M13) of myosin light-chain kinase
Experiment: cell-based or functional assay

relative luminescence intensity of CPG with 1 mM histamine against background (COS-7 cells) (times background): 3
time course of CPG luminescence after addition of 1 mM histamine: 10 min
Substance: Xenopus laevis calmodulin (CaM) (from UniProt P0DP33 2-149)
